According to patent publication US20110189347A1 (priority 2008, published 2011):

Experiments:
[1] = tested on: pathogenic Escherichia coli K88; assay: microbe, parasite or virus in culture
[2] = Growth performance of broiler chickens, floor pen trial over five weeks (Example 6); format: in vivo; conditions: 10 mg/kg feed
Excerpt: The objective of the present trial (Trial A) was to evaluate the effects of sucinic acid on the growth performance of broiler chickens in a floor pen trial over five weeks. Succinic acid was supplemented at four different dose levels. […] Each group was placed in one floor pen littered with wood shavings and allocated to one of the different treatments. Each treatment was replicated with 4 groups per sex. Birds had ad libitum access to feed and tap water. […] Chickens received diets based on soybean meal, and wheat as main ingredients (Table 6). […] The target quantities of succinic acid were added on top to the feed, mixed with appropriate amounts of maize starch as a carrier: […] For the statistical evaluation of the data, a one-factorial analysis of variance for each diet (factor: treatment) was carried out. Where significant treatment effects (p<0.05) were indicated, the differences among treatment means were subsequently analyzed with the Newman-Keuls test.

| SMILES | MIC90 [1] | Feed intake, relative to control (100) ([2]; Day 1-22) | Feed intake, relative to control (100) ([2]; Day 1-36) | Feed intake, relative to control (100) ([2]; Day 22-36) |
| --- | --- | --- | --- | --- |
| O=C(O)CCC(=O)O [Succinic acid, succinic acid] | < 31.2 mM |  |  |  |
| COC[C@H]1O[C@@H](OC2OC[C@@H]3O[C@]4(O[C@H]3[C@H]2OC(=O)C(C)C)O[C@H](C)[C@@](O)(C(C)=O)[C@@H]2OCO[C@H]24)[C@@H](OC)[C@@H](O)[C@@H]1O[C@@H]1O[C@H](C)[C@H](OC)[C@H](O[C@H]2C[C@@]3(C)OC4(C[C@@H](O)[C@H](O[C@H]5C[C@@H](O)[C@H](OC(=O)c6c(C)c(Cl)c(O)c(Cl)c6OC)[C@@H](C)O5)[C@@H](C)O4)O[C@@H]3[C@@H](C)O2)[C@H]1O (some centres unmarked) [Avilamycin, reference compound] |  | 105 | 94.3 | 102.5 |
| O=C(O)CC(O)(CC(=O)O)C(=O)O [citric acid, reference compound] | < 31.2 mM |  |  |  |
